Sequences of proteins named here, by UniProt entry; tags and fusion partners are left off. A change or cut given only in a name is not applied to a line headed by its entry.
UniProt P35408: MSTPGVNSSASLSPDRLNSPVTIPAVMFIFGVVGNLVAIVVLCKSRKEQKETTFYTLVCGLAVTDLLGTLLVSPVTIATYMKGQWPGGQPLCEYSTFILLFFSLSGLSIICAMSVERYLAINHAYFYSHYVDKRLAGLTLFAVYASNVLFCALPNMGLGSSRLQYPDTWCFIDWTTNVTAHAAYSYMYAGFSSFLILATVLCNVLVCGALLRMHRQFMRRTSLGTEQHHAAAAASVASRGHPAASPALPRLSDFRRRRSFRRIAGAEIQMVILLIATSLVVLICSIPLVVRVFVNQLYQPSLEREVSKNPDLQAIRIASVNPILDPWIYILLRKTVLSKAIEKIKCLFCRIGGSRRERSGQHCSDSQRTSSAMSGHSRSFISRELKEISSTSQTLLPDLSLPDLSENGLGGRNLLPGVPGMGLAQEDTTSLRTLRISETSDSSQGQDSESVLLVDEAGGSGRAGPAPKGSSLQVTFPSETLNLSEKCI

In patent EP2729445B1, “CYCLIC AMINE DERIVATIVES AS EP4 RECEPTOR ANTAGONISTS” (Rottapharm Biotech S.r.l., priority 2011, dated 2013):

Columns and labels:
[1] = target: T1, hEP4 receptors (Homo sapiens, UniProt P35408); assay: [3H]-Prostaglandin E2 membrane binding assay; details: human EP4/HEK293 transfectant membranes, 1nM [3H]-PGE2; Ki from IC50 by Cheng-Prousoff; pKi = -log10 Ki (M)
T1 construct: membrane fraction used
Experimental: (§1) The cDNA clone of human EP4 receptor (NM_000958.2) was obtained from InvitrogenTM: Ultimate™ ORF Clone Collection - Clone ID IOH46525. The coding sequence was subcloned in expression vector pcDNATM6.2/V5-DEST by Gateway technology (InvitrogenTM). Human embryonic kidney cells (HEK-293) were stably transfected with expression vector for human EP4 receptor in according to the method described in FuGENE®6 Transfection Reagent's manual (Roche Applied Science®).
(§2) The EP4 transfected cells were grown in Dulbecco's modified Eagle's medium containing 10% fetal bovine serum and 10 µg/ml Blasticidin S HCl (selection medium) at 37°C in a humidified atmosphere of 5% CO2 in air. […]
The membrane pellet was resuspended in the same buffer (5mM TRIS, 5mM ethylenediamine tetra-acetic acid (EDTA), pH 7.4), and protein concentration was determined by Bradford method (Bio-Bad® assay). […] Filters were washed with ice cold buffer pH 7.4 (50mM HEPES, NaCl 500mM, BSA 0.1% for EP4 binding assay or 50mM Tris-Cl for EP2 binding assays) and the residual [^3H]-PGE2 binding determined by solid scintillation counter (TopCount , PerkinElmer Inc).
The affinity (Ki) of each compound was calculated according to the Cheng-Prousoff equation: Ki = IC50/(1+([C]/Kd)). Results were expressed as pKi (- log10 Ki (M)

[2] = target: T1, hEP4 receptors; assay: cAMP assay (AlphaScreen) on human EP4 membrane of transfected cells, antagonism of PGE2; assay type: biochemical; details: HEK293 cell membrane stimulated with PGE2 3nM; read-out: functional IC50
Experimental: as §1, §2
The assay is based on the competition between endogenous cAMP and exogenously added biotinylated cAMP. […] Cell membrane/anti-cAMP Acceptor beads mix (5 µl) and a mixture of analysed compounds (dissolved in 100% DMSO to a final maximal concentration of 0.01% DMSO)/PGE2 (5 µl) were incubated at room temperature (22-23°C) for 30 min in the dark. […] After 1 h incubation RT (22-23°C) in the dark the plate was read using EnVision platform to determine the cAMP level (excitation: 680nm; emission:520,620nm). […]
Antagonism studies were performed stimulating HEK293 cell membrane with PGE2 3nM. The AlphaScreen signal is plotted as a function of log concentration of cAMP and functional IC50 is determined. […]

Row | Ki [1] [M] | IC50 [2] [nM] | Structure (SMILES)
1 | 6.31e-10 | 23 | O=C(O)c1ccc(C2(NC(=O)C3CC(F)(F)CCN3Cc3cccc(C(F)(F)F)c3)CC2)cc1 (single isomer, unassigned) [Example E20, 4-(1-(4,4-difluoro-1-(3-(trifluoromethyl)benzyl)piperidine-2-carboxamido)cyclopropyl)benzoic acid]
2 | 1.26e-09 | 15 | O=C(O)c1ccc(C2(NC(=O)C3CC(F)(F)CCN3Cc3cccc(C(F)(F)F)c3)CC2)cc1 (single isomer, unassigned) [Example E19, 4-(1-(4,4-difluoro-1-(3-(trifluoromethyl)benzyl)piperidine-2-carboxamido)cyclopropyl)benzoic acid]
